These are literature values, as cited in US20020004042A1, “Gene therapy for pulmonary edema using adenovirus vectors encoding a beta2adrenergic receptor gene” (priority 2000, published 2002).

SMILES strings stand for the structures.

This data set deals with isolated rat lungs. The conditions noted are these: cited from earlier work.

With `CC(C)NCC(O)c1ccc(O)c(O)c1` (stereo not shown) [isoproterenol], the “increase in lung liquid clearance” value is over 100%.
